Experimental findings from US20140370035A1 are described below.

In assay [1] the target is human von Willebrand factor (human) (UniProt P04275). Kind of assay: SPR (BIAcore); FVIII protein as analyte, hvWf as ligand; N=5; KD = off-rate/on-rate.
Assay [2] shares this target. Briefly: SPR (BIAcore); FVIII protein as analyte, hvWf as ligand; N=5.

pKd: −log10 of the molar value.

In assay [1], “rFVIIIFc DS (recombinant B-domain deleted FVIII-Fc monomer hybrid, drug substance) (from UniProt P0DOX5 223-449) (Fc fusion)” had a pKd of 8.79. In assay [2], the koff came to 0.00125 s⁻¹ and the kon is 792000 M⁻¹ s⁻¹.
In assay [1], “Single chain rFVIIIFc (non-processed isoform purified from rFVIIIFc DS) (from UniProt P0DOX5 223-449) (Fc fusion)” gave a negative-log Kd (pKd) of 8.89. In addition, in assay [2], the koff was determined as 0.00109 s⁻¹ and the kon is 866000 M⁻¹ s⁻¹.

The term pKd denotes −log10 of the Kd, conventionally taken in molar units. Higher therefore signals a small Kd. A word on the koff: it is a measure of how fast the partners let go of each other. A low value points to slow dissociation. What is called kon is a measure of how fast the partners come together. High values mean fast association, low ones slow association.
